Source: article PMC5059467, “Anti-tubulin drugs conjugated to anti-ErbB antibodies selectively radiosensitize” (Nature Communications, 2016)

What was measured:
[1] = tested on: CAL-27 tumour xenografts; test: CAL-27 tumour xenograft growth with or without IR; type: in vivo, mice
Description: (§1) CAL-27, OE19, NCI N87 and HCT116 tumour xenografts were established and tumour growth was measured with digital calipers. Tumour volume was measured blindly to treatment group and calculated using the formula as ½ × length × width^2. Mice were randomized into groups once the average tumour volume reached >100 mm^3. Mice were assigned to indicated groups in ‘Results'. […] For irradiated mice, the tumour-bearing hindlimbs were focally irradiated while the remainder of the mouse was shielded from IR with custom designed lead blocking >95% of the dose as verified by dosimeters placed on the mouse. Free MMAE was injected on an equimolar basis to C-MMAE in final volume of 3% DMSO. Drug doses and IR fractionation are as indicated in ‘Results'. To prevent unnecessary morbidity, mice were killed if tumour length exceeded 15 mm per protocol. Nonlinear regression least squares fit was used to calculate tumour volume doubling times. Tumour doubling times were extrapolated for T-DM1+IR groups where tumour doubling was been achieved. To minimize the number of mice used, tumours were grown in the bilateral flanks. For CAL-27 tumour xenografts in experiment Fig. 4f, the number of mice and tumours per group were: control (5 mice, 10 tumours), IR (5 mice, 10 tumours), MMAE (4 mice, 8 tumours) MMAE+IR (5 mice, 10 tumours), cetuximab (5 mice, 10 tumours), cetuximab+IR (5 mice, 10 tumours), C-MMAE (4 mice, 8 tumours), C-MMAE+IR (5 mice, 10 tumours). For CAL-27 tumour xenografts in experiment Fig. 4g, the number of mice and tumours per group were: control (4 mice, 8 tumours), IR (5 mice, 10 tumours), cetuximab+MMAE (5 mice, 10 tumours) cetuximab+MMAE+IR (5 mice, 10 tumours), C-MMAE (5 mice, 10 tumours), C-MMAE+IR (5 mice, 10 tumours). […] For OE19 tumour xenografts in experiment Fig. 5d,e and Table 1, the number of mice and tumours per group were: control (5 mice, 10 tumours), IR (5 mice, 10 tumours), trastuzumab (5 mice, 10 tumours), trastuzumab+IR (5 mice, 10 tumours), T-DM1 (5 mice, 10 tumours) and T-DM1+IR (5 mice, 10 tumours). For NCI N87 tumour xenografts in experiment Fig. 5d,e and Table 1, the number of mice and tumours per group were: control (2 mice, 4 tumours), IR (3 mice, 6 tumours), trastuzumab (3 mice, 6 tumours), trastuzumab+IR (4 mice, 8 tumours), T-DM1 3 mice, 6 tumours) and T-DM1+ IR (4 mice, 8 tumours). For HCT116 tumour xenografts in experiment Fig. 5d,e and Table 1, the number of mice and tumours per group were: control (3 mice, 6 tumours), IR (4 mice, 8 tumours), trastuzumab (3 mice, 6 tumours), trastuzumab+IR (3 mice, 6 tumours), T-DM1 (3 mice, 6 tumours) and T-DM1+ IR (4 mice, 8 tumours).

[2] = tested on: OE19 cells; test: Cell cycle profile (propidium iodide, flow cytometry), OE19 cells; type: cell-based, human; conditions: overnight treatment
Description: Cells were treated with RNAse, stained with propidium iodide (PI) and analysed by FACS using FloJo software.

[3] = tested on: LN229 cells; test: Neutral comet assay after IR, LN229 cells; type: cell-based, human; conditions: 20 nM overnight, 6 Gy, low EGFR binding LN229
Description: (§2) Cells were treated with indicated times doses of MMAE, mertansine, cetuximab, cetuximab-MMAE, trastuzumab, trastuzumab-MMAE or T-DM1 overnight, and then irradiated with 6 Gy. Cells were collected 15 min post IR, suspended in agarose gel and lysed per assay directions (Trevigen). Samples underwent electrophoresis under neutral conditions and were then stained with Sybr Green. Comet tails were counted in multiple fields (>60 cells per sample) and analysed using CometScore (TriTek Corp). Comet tail length was normalized to vehicle-treated, non-irradiated cells.

[4] = tested on: EGFR expressing tumours; test: In vivo Cy5 optical imaging of EGFR expressing tumour xenografts; parameters: species or system mice; conditions: 0.5 nmol Cy5-labelled C-MMAE i.v.
Description: (§3) All animal work was done in compliance with the University of California San Diego Institutional Animal Use and Care Committee. Six-to-eight-week-old female athymic nu/nu mice purchased from the University of California San Diego Animal Care Program breeding colony were injected subcutaneously into the bilateral upper thighs with 5 × 10^6 CAL-27, SQ9-G, SCC-35, SCC-61, A549, HCT-116, OE19 or LN229 tumour cells in a 1:1 Matrigel (BD) and PBS solution. After tumours grew to >100 mm^3 they were injected with 0.5 nmol of Cy-labelled cetuximab-MMAE, trastuzumab-MMAE (∼4 and ∼3.9 mg kg^−1, respectively) as described above. For imaging, mice were anaesthetized (1:1 mixture of 100 mg ml^−1 of ketamine and 5 mg ml^−1 of midazolam). Animals were imaged using a Maestro Small Animal Imager (CRI) with excitation filter of 620/22 and 645 nm long-pass emission filter with dichroic filter tuned to 670 nm. Imaging was done both with skin on and after skin removal to decrease autofluorescence and scattering. […] At various time points after injection, the tail was pricked and a small volume (5–10 μl) of blood was collected in a heparinized hematocrit tube. Fluorescent images were taken using the Maestro, with the filters mentioned above, and the integrated fluorescent intensity was measured using Image J.

[5] = tested on: CAL-27 cells; test: Neutral comet assay after IR, CAL-27 cells; type: cell-based, human; conditions: 0.5 nM overnight, 6 Gy, compared with irradiated vehicle
Description: as §2

[6] = tested on: CALU3 cells; test: Alamar blue cell viability, CALU3 cells; type: cell-based, human; conditions: 96 hours
[7] = tested on: CAL-27 cells; test: Cell cycle profile (propidium iodide, flow cytometry), CAL-27 cells; type: cell-based, human; conditions: overnight treatment
Description: Cells were treated with MMAE, mertansine, cetuximab or cetuximab-MMAE, trastuzumab, trastuzumab-MMAE or T-DM1 for 24 h and then fixed in methanol. Cells were treated with RNAse, stained with propidium iodide (PI) and analysed by FACS using FloJo software.

[8] = tested on: CAL-27 cells; test: Clonogenic cell survival (SF2), CAL-27 cells; type: cell-based, human; conditions: drug overnight then 2 Gy, compared with vehicle
Description: Cells were treated with MMAE, mertansine, cetuximab or cetuximab-MMAE for 24 h and then irradiated with 2 Gy. Following IR, cells were counted, re-plated at varying cell numbers in drug-free media. 10–14 days after initial seeding formed colonies were methanol fixed, stained with crystal violet and counted. Surviving fraction at 2 Gy (SF2) was calculated as the fraction of cells surviving 2 Gy compared with non-irradiated cells.

[9] = tested on: EGFR+ tumour xenografts; test: Immunohistochemistry of EGFR+ tumour xenografts (pS10 Histone H3); type: in vivo, mice; conditions: tumours harvested 24 h after injection
Description: (§4) Tissue sections were cut from blocks of formalin-fixed paraffin embedded xenografts. Four micron thick tissue sections were stained with antibodies to phospho-histone H3 (pH3, Abcam, catalogue number ab32107) and cleaved caspase-3 (ClC3, Cell Signaling Technology, catalogue number 9661) and used at dilutions of 1:300 and 1:900, respectively. Slides were stained on a Ventana Discovery Ultra (Ventana Medical Systems, Tucson, AZ, USA). Antigen retrieval was performed using CC1 for 24–40 min at 95 °C. The primary antibodies were incubated on the sections for 1 h at 37 °C. Primary antibodies were visualized used DAB as a chromagen using the UltraMap system (Ventana Medical systems) followed by hematoxylin as a counterstain. Slides were rinsed, dehydrated through alcohol and xylene and coverslipped.

[10] = tested on: CALU3 cells; test: Neutral comet assay after IR, CALU3 cells; type: cell-based, human; conditions: 2 nM overnight, 6 Gy, compared with vehicle or 20 nM antibody
Description: as §2

[11] = tested on: CAL-27 cells; test: ADC cell surface binding (Cy5, flow cytometry), CAL-27 cells; parameters: species or system human; conditions: Cy5-labelled ADC, on ice, increasing concentrations
Description: (§5) Cells were collected and resuspended in cold PBS with 5% BSA. Cy5-labelled cetuximab-MMAE or trastuzumab-MMAE was added to the cells at indicated concentrations for 15 min on ice. Cells were washed, resuspended in PBS with 5% BSA and 0.5 μg ml^−1 propidium iodide, and analysed by flow cytometry.

[12] = tested on: OE19 tumours; test: In vivo Cy5 optical imaging of OE19 tumour xenografts; parameters: species or system mice; conditions: 0.5 nmol i.v., imaged 48 h later, HER2+ tumours
Description: as §3

[13] = tested on: OE19 tumour xenografts; test: OE19 tumour xenograft growth with or without IR; type: in vivo, mice; conditions: single dose of 1 nmol, by day 14
Description: as §1, with “For NCI N87 tumour xenografts in experiment Fig. 5d,e and Table 1, the number of mice and tumours per group were: control (2 mice, 4 tumours), IR (3 mice, 6 tumours), trastuzumab (3 mice, 6 tumours), trastuzumab+IR (4 mice, 8 tumours), T-DM1 3 mice, 6 tumours) and T-DM1+ IR (4 mice, 8 tumours). For HCT116 tumour xenografts in experiment Fig. 5d,e and Table 1, the number of mice and tumours per group were: control (3 mice, 6 tumours), IR (4 mice, 8 tumours), trastuzumab (3 mice, 6 tumours), trastuzumab+IR (3 mice, 6 tumours), T-DM1 (3 mice, 6 tumours) and T-DM1+ IR (4 mice, 8 tumours).” left out

[14] = tested on: OE19 tumours; test: Immunohistochemistry of OE19 tumour xenografts (pS10 Histone H3, cleaved caspase 3); type: in vivo, mice; conditions: 0.5 nmol Cy5-labelled ADC i.v.
Description: as §4
Immunostained slides were scanned using an Axio Scan.Z1 (Zeiss; Oberkochen, Germany). […] Whole-slide images were imported into Definiens Software for quantitative analysis (Definiens; Munich, Germany). […] For analysis of pH3 (a nuclear stain), the total number of nuclei and the total number of nuclei showing DAB staining (pH3 positive cells) were recorded within each ROI. The percent of positive nuclei was then calculated for each sample. For analysis of ClC3 (a cytoplasmic stain), mean DAB chromagen intensity was measured and calculated within the ROI for each sample.

[15] = tested on: HER2 expressing cell lines, OE19, CALU3, and BT474; test: ADC cell surface binding (Cy5, flow cytometry), HER2 expressing cell lines; parameters: species or system human; conditions: Cy5-labelled ADC, on ice, increasing concentrations
Description: as §5

[16] = Blood clearance by Cy5 fluorescence; type: in vivo, mice; conditions: 5 nmol, Cy5-labelled
Description: as §3

[17] = tested on: OE19 cells; test: Neutral comet assay after IR, OE19 cells; type: cell-based, human; conditions: 2 nM overnight, 6 Gy, compared with vehicle, 20 nM antibody or 2 nM C-MMAE
Description: as §2

With “C-MMAE: monomethyl auristatin E conjugated to cetuximab via maleimidocaproyl-valine-citrulline-PABA linker, Cy5-labelled, ∼3.7 MMAE per antibody” the “tumour growth delay with IR” value ([1]; 0.5 nmol day 0, 3 Gy days 1 and 2, P<0.0001 compared with all other groups by day 35) was “significantly increased tumour growth delay”, the “Mean Diff. Control vs. treatment + IR (Tukey's multiple comparisons, tumour volume)” value ([1]; Fig 4f, day 35, + IR 3 Gy on days 1 and 2, 0.5 nmol cetuximab or C-MMAE, 2 nmol free MMAE on day 0) was 893.5 and the “Mean Diff. Control vs. treatment (Tukey's multiple comparisons, tumour volume)” value ([1]; Fig 4f, day 35, no IR, 0.5 nmol cetuximab or C-MMAE, 2 nmol free MMAE on day 0) was 646.7. For the same substance, the “Mean Diff. Control vs. treatment + IR (Tukey's multiple comparisons, tumour volume)” value ([1]; Fig 4g, day 28, + IR 3 Gy on days 1, 2) was 456.9, the “Mean Diff. Control vs. treatment (Tukey's multiple comparisons, tumour volume)” value ([1]; Fig 4g, day 28, no IR) was 347.3 and the “tumour size compared with co-administered cetuximab and free MMAE” value ([1]; irradiated groups, P<0.05 by day 28) was “significantly smaller tumours”. For the same substance, the “cell cycle profile (G2/M)” value [2] was “did not influence the cell cycle profile”, the “effect on IR induced comet tail length” value [3] was “not appreciably increased” and the “persistence in murine xenografts (Cy5 signal)” value [4] was “up to 72 h”. For the same substance, the “effect on IR induced comet tail length” value [5] was “significantly increased”, the “cytotoxicity of C-MMAE compared with T-MMAE” value [6] was “equally cytotoxic” and the “cell cycle profile (G2/M)” value [7] was “G2/M arrest”. The “surviving fraction following 2 Gy (SF2)” value [8] was “decreased”, the “accumulation in G2/M by pS10 Histone H3 staining compared with cetuximab” value [9] was “increased accumulation in G2/M” and the “effect on IR induced comet tail length” value [10] was “increased comet tail length to a similar degree”. For the same substance, the cell surface binding [11] was “dose-dependent manner”.
In the case of “T-MMAE: monomethyl auristatin E conjugated to trastuzumab via maleimidocaproyl-valine-citrulline-PABA linker, Cy5-labelled, ∼3.2 MMAE per antibody”, the “tumour Cy5 signal accumulation” value [12] is reported as “greater Cy5 signal accumulation within tumours compared with C-MMAE”, the “cytotoxicity of C-MMAE compared with T-MMAE” value [6] is reported as “equally cytotoxic” and the “slowing of tumour growth compared with control or trastuzumab” value [13] is reported as “equally efficacious in slowing tumour growth”. For the same substance, the “effect on IR induced comet tail length” value [10] was “increased comet tail length to a similar degree”, the “pS10 of Histone H3 in tumours” value [14] was “increased pS10 of Histone H3 in tumours” and the cell surface binding [15] was “dose-dependent binding”. The “pharmacokinetics, loss of Cy5 fluorescence in the blood” value [16] was “comparable to that of similar Cy5-labelled antibody alone”, the “effect on IR induced comet tail length” value [17] was “further increased comet tail length” and the cell surface binding [11] was “not”.
